Among the data in ChEMBL document CHEMBL2396604, “Synthesis and structure activity relationship of tetrahydroisoquinoline-based potentiators of GluN2C and GluN2D containing N-methyl-D-aspartate receptors” (J Med Chem, 2013) are EC50 values, retold here.

Sequences of proteins named here, by UniProt entry; tags and fusion partners are left off. A change or cut given only in a name is not applied to a line headed by its entry.
UniProt Q00961: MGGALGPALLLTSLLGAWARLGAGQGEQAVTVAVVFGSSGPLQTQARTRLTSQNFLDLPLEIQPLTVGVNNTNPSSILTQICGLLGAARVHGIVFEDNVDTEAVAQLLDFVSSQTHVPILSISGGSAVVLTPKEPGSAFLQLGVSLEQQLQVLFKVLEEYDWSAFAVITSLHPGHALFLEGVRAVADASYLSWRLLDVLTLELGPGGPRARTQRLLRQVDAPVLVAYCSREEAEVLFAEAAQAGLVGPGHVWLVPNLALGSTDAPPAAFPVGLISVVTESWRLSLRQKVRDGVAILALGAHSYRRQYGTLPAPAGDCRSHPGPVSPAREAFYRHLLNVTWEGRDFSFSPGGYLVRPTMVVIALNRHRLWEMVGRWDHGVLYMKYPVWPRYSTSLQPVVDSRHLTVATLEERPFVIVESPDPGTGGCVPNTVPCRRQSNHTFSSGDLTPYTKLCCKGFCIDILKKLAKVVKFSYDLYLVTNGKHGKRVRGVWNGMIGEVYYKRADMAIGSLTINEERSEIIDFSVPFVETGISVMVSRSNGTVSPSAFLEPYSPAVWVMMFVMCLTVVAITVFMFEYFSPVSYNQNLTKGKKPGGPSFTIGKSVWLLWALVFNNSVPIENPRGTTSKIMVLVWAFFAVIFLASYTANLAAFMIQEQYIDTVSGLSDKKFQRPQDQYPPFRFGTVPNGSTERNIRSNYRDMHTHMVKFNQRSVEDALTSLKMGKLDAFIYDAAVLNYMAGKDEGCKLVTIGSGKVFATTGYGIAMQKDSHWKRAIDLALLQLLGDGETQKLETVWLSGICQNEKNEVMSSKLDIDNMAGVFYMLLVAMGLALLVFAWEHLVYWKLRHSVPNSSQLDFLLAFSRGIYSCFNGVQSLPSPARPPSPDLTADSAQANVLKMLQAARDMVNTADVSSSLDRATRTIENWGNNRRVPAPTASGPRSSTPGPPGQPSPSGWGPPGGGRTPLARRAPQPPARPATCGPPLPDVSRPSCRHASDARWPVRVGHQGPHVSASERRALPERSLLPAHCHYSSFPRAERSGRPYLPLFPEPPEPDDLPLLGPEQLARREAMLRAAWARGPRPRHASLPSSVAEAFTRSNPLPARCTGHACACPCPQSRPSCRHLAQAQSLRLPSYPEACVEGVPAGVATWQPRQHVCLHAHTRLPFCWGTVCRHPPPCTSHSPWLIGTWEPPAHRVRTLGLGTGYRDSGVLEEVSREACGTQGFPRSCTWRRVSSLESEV
UniProt Q62645, whole entry: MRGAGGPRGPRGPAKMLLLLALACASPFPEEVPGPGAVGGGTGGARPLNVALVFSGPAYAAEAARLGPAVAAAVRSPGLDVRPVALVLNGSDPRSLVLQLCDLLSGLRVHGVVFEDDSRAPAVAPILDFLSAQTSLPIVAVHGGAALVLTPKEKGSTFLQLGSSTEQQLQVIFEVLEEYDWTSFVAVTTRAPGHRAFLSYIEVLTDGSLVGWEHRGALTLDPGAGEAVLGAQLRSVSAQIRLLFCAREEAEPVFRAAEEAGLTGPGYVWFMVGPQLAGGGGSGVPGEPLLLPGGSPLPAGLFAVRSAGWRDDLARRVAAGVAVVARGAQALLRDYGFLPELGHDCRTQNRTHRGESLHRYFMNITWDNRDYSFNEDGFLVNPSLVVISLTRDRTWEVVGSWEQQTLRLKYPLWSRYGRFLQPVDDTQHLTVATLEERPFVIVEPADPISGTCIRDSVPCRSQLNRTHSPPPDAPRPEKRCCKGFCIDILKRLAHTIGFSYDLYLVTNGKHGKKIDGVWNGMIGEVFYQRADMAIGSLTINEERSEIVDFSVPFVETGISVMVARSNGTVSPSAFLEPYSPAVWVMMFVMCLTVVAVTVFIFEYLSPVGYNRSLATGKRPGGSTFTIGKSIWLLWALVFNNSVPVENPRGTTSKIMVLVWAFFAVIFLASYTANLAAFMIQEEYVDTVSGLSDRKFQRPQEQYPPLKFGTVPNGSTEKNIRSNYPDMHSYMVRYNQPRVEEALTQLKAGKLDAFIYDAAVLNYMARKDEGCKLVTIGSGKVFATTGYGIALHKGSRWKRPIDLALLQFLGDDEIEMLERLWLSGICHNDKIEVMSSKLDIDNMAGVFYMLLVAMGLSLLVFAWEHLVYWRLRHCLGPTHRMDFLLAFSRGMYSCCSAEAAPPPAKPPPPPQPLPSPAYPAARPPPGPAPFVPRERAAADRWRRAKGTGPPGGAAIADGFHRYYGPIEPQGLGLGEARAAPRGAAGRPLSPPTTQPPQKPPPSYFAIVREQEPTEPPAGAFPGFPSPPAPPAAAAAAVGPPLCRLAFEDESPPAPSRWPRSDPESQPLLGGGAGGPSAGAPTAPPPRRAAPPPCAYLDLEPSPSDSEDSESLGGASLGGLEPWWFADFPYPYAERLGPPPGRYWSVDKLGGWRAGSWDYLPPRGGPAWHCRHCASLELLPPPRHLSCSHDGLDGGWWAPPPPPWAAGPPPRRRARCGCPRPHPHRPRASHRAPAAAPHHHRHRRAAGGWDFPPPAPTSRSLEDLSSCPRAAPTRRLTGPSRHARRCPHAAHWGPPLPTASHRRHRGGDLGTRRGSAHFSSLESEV

By EC50 is commonly meant the concentration at which the effect is half-maximal.

Experiment [1] addresses Glutamate NMDA receptor; Grin1/Grin2c (Rattus norvegicus, UniProt P35439+Q00961). The experiment is described as follows: Activity at rat recombinant GluN1/GluN2C receptor assessed as potentiation of glycine/glutamate-induced activation by two-electrode voltage clamp technique. The format is protein-complex assay. For orientation: Two-electrode voltage clamp holds a large cell at a set potential and records current.

For experiment [2], the target named is Ionotropic glutamate receptor NMDA 1/2D (Rattus norvegicus, UniProt P35439+Q62645). The experiment is described as follows: Activity at rat recombinant GluN1/GluN2D receptor assessed as potentiation of glycine/glutamate-induced activation by two-electrode voltage clamp technique. The format is protein-complex assay.

Structures are written as SMILES.

Regarding `COc1ccc(OCC2c3ccc(OC)cc3CCN2C(=O)c2cccc(Cl)c2)cc1` (racemic), the EC50 in experiment [1] came out at 1300 nM; in experiment [2], 1000 nM.
